Here are results for ten compounds from ChEMBL document CHEMBL3351781, “Assessment of antidotal efficacy of cholinesterase reactivators against paraoxon: In vitro reactivation kinetics and physicochemical properties” (2014).

Series [1] in a line: Dissociation constant, pKa of the compound by Albert and Sergeant/UV-visible spectrophotometry method.
The nature of series [2]: Dissociation constant, pKa of the compound by non-linear regression/UV-VIS absorption spectra analysis.

What is called pKa is the pH at which an ionisable group is half protonated. Read a low pKa as a stronger acid or weaker base. `CC(=O)/C(C)=N/O` returned a pKa in series [1] of 9.5.

On to `NC(=O)c1cc[n+](Cc2ccc(C[n+]3ccc(/C=N/O)cc3)cc2)cc1.[Br-].[Br-]`, for which the pKa in series [2] amounted to 8.1; in series [1], 8.25.

Regarding `O/N=C/c1cc[n+](CCC[n+]2ccc(/C=N/O)cc2)cc1.[Br-].[Br-]`, the pKa in series [2] turned out to be 7.06; in series [1], 8.19.

Regarding `C[n+]1ccc(/C=N/O)cc1.[Br-]`, in series [1], the pKa stood at 8.36.

In the case of `NC(=O)c1cc[n+](Cc2ccccc2C[n+]2ccc(/C=N/O)cc2)cc1.[Br-].[Br-]`, the pKa in series [2] was found to be 7.97; in series [1], 8.13.

For the compound `NC(=O)c1cc[n+](Cc2cccc(C[n+]3ccc(/C=N/O)cc3)c2)cc1.[Br-].[Br-]`, the pKa in series [2] worked out at 8.11; in series [1] it was 8.02.

For `NC(=O)c1cc[n+](CCCC[n+]2ccc(/C=N/O)cc2)cc1.[Br-].[Br-]`, the pKa in series [2] is 8.28; in series [1], 8.55.

In the case of `O/N=C/c1cc[n+](Cc2ccc(C[n+]3ccc(/C=N/O)cc3)cc2)cc1.[Br-].[Br-]`, the pKa in series [2] came to 7.58; in series [1] it was 8.3.

Consider `O/N=C\c1cc[n+](Cc2ccccc2C[n+]2ccc(/C=N\O)cc2)cc1.[Br-].[Br-]`, for which the pKa was determined as 7.4 in series [2] and 8.29 in series [1].

For `C[n+]1cccc(/C=N/O)c1.[Br-]`, the pKa in series [1] is 9.53.
